# In US20140227357A1, “FILL FORMULATIONS AND CAPSULES AND METHOD OF USE TO AVOID MIGRATION OF FILL INTO OR THROUGH THE SHELL” (CAPSUGEL BELGIUM NV, priority 2011, published 2014):
# Entries after “also recorded” stand apart in the source; their conditions may differ.
# Assay: Stability testing (loss of volatile compound as measured by weight decrease), 40° C. ventilated oven
# Assay type: physicochemical
# Details: 50 μL fill, non sealed size 3 LICAPS, 40° C. oven, after 5 days
# Protocol: Stability testing (loss of volatile compound as measured by weight decrease): Six (6) LICAPS® Capsules were manually filled with 2-butanol. Each LICAPS® capsule was individually weighed at time zero, stored in a ventilated oven at 40° C., and then reweighed at defined time points. […] The results are represented graphically in FIG. 4.
# Methods: Size 3 LICAPS® capsules (n=6) were manually filled with 2-butanol (50 μL or 225 μL). The LICAPS® capsules were either not sealed or sealed on CIFS® equipment. Each capsule was individually weighed at time zero and placed in an oven at 40° C. and reweighted at defined time points.
# Stability testing (loss of volatile compound as measured by weight decrease): Six LICAPS® capsules were manually filled with the composition described in Table 7, Each UCAPS® capsule was individually weighed at time zero, stored at 40° C. in a ventilated oven, and reweighed at defined time points. The results are represented graphically in FIG. 11.
# Methods: LICAPS® size 3 capsules (n=6) were tilled with a formulation of 2-butanol +0.75% HPC (50 μL). The LICAPS® capsules were either not sealed or manually sealed. Each capsule was individually weighted at time zero and placed in a oven at 40° C. for a week and then reweidtted at defined time points.
substance,measurement,value
2-butanol [Formulation 2-butanol],weight of capsules (loss of fill),significant decrease in weight; also recorded: important decrease in weight
